Measurements from patent US20240239801A1, “PYRIMIDO[5,4,D]PYRIMIDINE COMPOUNDS, COMPOSITIONS COMPRISING THEM AND USES THEREOF” (Université de Montréal, priority 2021, published 2024).

Sequences of proteins named here, by UniProt entry; tags and fusion partners are left off. Residues count along the entry.
UniProt P10398, 310-570 limits assumed: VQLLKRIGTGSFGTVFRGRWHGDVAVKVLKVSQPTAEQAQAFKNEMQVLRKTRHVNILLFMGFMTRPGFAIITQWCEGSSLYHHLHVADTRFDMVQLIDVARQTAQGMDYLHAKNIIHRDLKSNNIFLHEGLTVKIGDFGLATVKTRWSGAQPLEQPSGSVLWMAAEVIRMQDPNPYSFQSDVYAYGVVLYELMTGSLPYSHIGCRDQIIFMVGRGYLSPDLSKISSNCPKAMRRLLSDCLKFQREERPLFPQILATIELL

Legend:
ARAF = ARAF (Homo sapiens, UniProt P10398); assay: ARAF kinase activity assay (AlphaLISA p-MEK detection); details: read-out: Kinase IC50 (nM) ARAF; Table A
Procedure: Compound preparation: solid samples of each substances in 1dram vials were suspended in DMSO (Fisher Scientific) at a stock concentration of 20 mM. Stocks were kept at −20° C. and protected from light. If solubility of the compound at 20 mM appeared to be an issue, the initial concentration of the DMSO stock was changed to 10 mM or 5 mM.
In vitro enzymatic reactions were used for evaluating compounds intrinsic activity against BRAF, CRAF and ARAF. […]
ARAF kinase reactions were carried out for a total of 2 hours at 30° C. and then stopped by addition of EDTA at a final concentration of 40 mM. Reactions were then detected using the AlphaLISA® SureFire® Ultra™ p-MEK ½ (Ser218/222) (PerkinElmer) kit. […] After completion of the detection reactions, the signals were recorded on a Synergy Neo2 plate reader (Biotek) equipped with AlphaLISA® filters. The effect of each compound dilution on the pMEK signal generated by ARAF reactions was expressed in % inhibition and calculated as follows. […]

SK-MEL30 = assay: Proliferation inhibition, CellTiter-Glo; details: read-out: SK-MEL30 Prolif. EC50; Table D-1; 3 days
Procedure: (§1) All cancer cell lines (A375, A101D, A2058, RKO, HT29 SK-MEL 30, IPC298, HepG2, HCT-116, Lovo, SW620, SW480, NCI-H358, NCI-H2122, Calu-6, NCIH2087, NCIH1755, NCIH1666 and Mewo) were obtained from ATCC and cultured in RPMI-1640 medium (Gibco) supplemented with 5% heat inactivated fetal bovine serum (FBS, Wisent) at 37° C. under 5% CO2. Cells were maintained in T175 flasks (Greiner). They were passaged by removing the culture medium, washing once in 10 mL of room temperature Phosphate Buffered Saline (PBS; Wisent) and incubating at 37° C. with 2 mL of 0.05% Trypsin (Thermo-Fisher). Trypsin was then inactivated by adding complete growth medium and the cells were then replated in a T175 culture dish at the appropriate dilution. All cell lines were routinely tested for mycoplasma contamination. Tissue type and mutational status of each cell line can be found in Table B.
(§2) CellTiter-Glo® viability analysis was conducted on cells plated in […] of complete RPMI-1640 growth medium in 96-well flat-bottomed white opaque plates (Greiner or Corning) at a density indicated in Table E (for each CCL, number of cells plated per well of a 96-well plate to perform the CellTiter-Glo® cell viability assay). The cell density in cells/cm^2 would correspond to cell number divided by the area of one well of a 96-well plate (0.32 cm^2). Cells were maintained overnight at 37° C. under 5% CO2 before treatment with compounds' dilution series for 3 days.
(§3) In a dilution series 100 μL/well of test substance dilution prepared in complete RPMI-1640 growth media was added to the cells plated initially in 100 μL of growth media. The dilution series is selected so that ten concentrations cover a range from 30 μM or 10 μM to […]. If necessary (as in the case of A375 cells, which were more sensitive to the compounds) the initial concentration of 10 μM is lowered to 1 μM and further dilution is carried out accordingly. The final concentration of DMSO in the assay is set to 0.5%.
(§4) After 3 days of incubation, the growth media were removed by aspiration and 60 μL of diluted CellTiter-Glo® reagent (10 μL CellTiter-Glo® reagent+50 μL of PBS) was added to each well. Cells were allowed to lyse and to equilibrate in CellTiter-Glo® reagent by 5 min incubation on a plate shaker followed by 10 min incubation at room temperature. Luminescence signals were then acquired on a Synergy Neo2 plate reader (Biotek).
(§5) The effect of each compound dilution on the proliferation of cancer cell lines was expressed in % inhibition and calculated as follows. An internal 100% inhibition control (1 μM of trametinib; cat. No. HY-10999; MedChem Express; CAS No. 871700-17-3) was included in each plate and used as a measure of CellTiter-Glo® signal background. The value obtained for trametinib was subtracted from each data point. The average of DMSO (vehicle) controls (set as 0% inhibition) was established and used to calculate % inhibition:
(§6) The ability of each compound to inhibit proliferation was expressed as a EC50 value obtained by plotting the effect values for each data point of a dilution series and fitting the obtained curves using a log(agonist) versus response−variable slope (four parameters) function using GraphPadPrism (V7.0) or Dotmatics Screening Ultra platform.

SW480 = assay: Proliferation inhibition, CellTiter-Glo; details: read-out: SW480 Prolif. EC50; Table D-2; 3 days
Procedure: as §1, §2, §3, §4, §5, §6

HCT116 = assay: Proliferation inhibition, CellTiter-Glo; details: read-out: HCT116 Prolif. EC50; Table D-1; 3 days
Procedure: as §1, §2, §3, §4, §5, §6

NCI-H2122 = assay: Proliferation inhibition, CellTiter-Glo; details: read-out: NCI-H2122 Prolif. EC50; Table D-2; 3 days
Procedure: as §1, §2, §3, §4, §5, §6

O=S(=O)(Nc1ccc(F)c(Nc2ncnc3cnc(-n4cnc5c(N6CCC(O)(C(F)(F)F)CC6)cccc54)nc23)c1F)c1cccc(Cl)c1Cl gave an IC50 (ARAF) greater than 20 nM, an EC50 (SK-MEL30) of less than 300 nM and an EC50 (SW480) of 300 to 3000 nM. For the same molecule, the EC50 (HCT116) was less than 300 nM and the EC50 (NCI-H2122) was 300 to 3000 nM.

COc1ccc(S(=O)(=O)Nc2ccc(F)c(Nc3ncnc4cnc(-n5cc(S(=O)(=O)N(C)CCN(C)C)c6ccccc65)nc34)c2F)c(C)c1Cl showed an IC50 (ARAF) of 10 to 20 nM, an EC50 (SK-MEL30) of less than 300 nM and an EC50 (SW480) greater than 3000 nM. The EC50 (HCT116) was 300 to 3000 nM and the EC50 (NCI-H2122) was greater than 3000 nM.
